Values quoted from earlier work in publication PMC6162689.

Target: CA125 (Homo sapiens) (UniProt Q8WXI7)

Kd: 5 nM
Substance: Mesothelin (from UniProt Q13421)
